Test results published in patent US20220017572A1, “GEMINOID LIPOPEPTIDE COMPOUNDS AND THEIR USES” (Erasmus University Medical Center Rotterdam, priority 2016, published 2022).

Chains of the proteins cited; added tags and fusions are not shown. Residues count along the entry.
UniProt P09958, 108-794 limits assumed: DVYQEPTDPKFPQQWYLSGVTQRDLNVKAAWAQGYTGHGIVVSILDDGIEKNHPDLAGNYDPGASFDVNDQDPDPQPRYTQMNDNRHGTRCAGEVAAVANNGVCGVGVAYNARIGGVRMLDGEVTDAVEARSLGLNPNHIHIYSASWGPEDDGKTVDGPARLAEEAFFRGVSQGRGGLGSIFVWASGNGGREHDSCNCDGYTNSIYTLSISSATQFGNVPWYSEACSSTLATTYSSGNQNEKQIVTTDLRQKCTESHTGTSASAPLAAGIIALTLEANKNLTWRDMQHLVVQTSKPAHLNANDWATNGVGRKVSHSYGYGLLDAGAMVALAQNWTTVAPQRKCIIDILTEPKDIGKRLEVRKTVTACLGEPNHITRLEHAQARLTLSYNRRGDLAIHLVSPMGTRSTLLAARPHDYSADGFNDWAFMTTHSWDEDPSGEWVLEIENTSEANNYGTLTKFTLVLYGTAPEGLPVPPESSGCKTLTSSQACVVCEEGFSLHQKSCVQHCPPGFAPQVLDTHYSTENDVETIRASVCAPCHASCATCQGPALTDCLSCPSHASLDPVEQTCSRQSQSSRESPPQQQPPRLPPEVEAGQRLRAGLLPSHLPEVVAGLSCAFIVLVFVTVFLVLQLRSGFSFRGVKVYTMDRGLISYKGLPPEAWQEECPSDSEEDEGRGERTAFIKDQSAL

Molecular target: human furin (Homo sapiens, UniProt P09958)
Assay: Human furin inhibition, hydrolysis of Ac-RVRR-MCA
Details: read-out: Ki hFurin; gemini surfactants of type B, Table 3
Experimental: The enzyme was dissolved in 1 mL MES buffer (10 mM), 1 mM CaCl2, pH 7.0 at 36.5° C. Substrate was added in a concentration 10 times the Km, and the inhibitor compounds of type C (C16-KGnK-C16, C16-KAnK-C16, and C16-RAnR-C16) were added in increasing concentrations (1.0, 5.0, 10.0, 20.0, 40.0 μL) from a stock solution of 2 mg in 1 mL DMSO. The residual activity was measured in a Hitachi F2500 spectrofluorimeter, and plots were fitted using the Grafit® software (Erithracus Software, Horley, Surrey, UK). All the assays were calculated by the Morrison equation for competitive inhibition (eq. 1, [Morrison, 1969]). The amount of substrate used for the tight binding titration experiments follow all the requirements, where [S]<<Km for all enzymes, so the Kiapp=Ki.
However, for furin we used a correction of Ki app, where [S]˜Km (eq. 2).
Range of Proteases Inhibited by Geminoids, Determination of Ki with Z-RR-MCA (Dengue 2 Protease) and Ac-RVRR-MCA (Furin) (SEQ ID NO:60).

## CCCCCCCCCCCC(=O)N[C@@H](CCCCN)C(=O)NCCCCCCNC(=O)[C@H](CCCCN)NC(=O)CCCCCCCCCCC
  Ki: 1600 nM
